{"sequences": {"note": "The chains behind the UniProt entries cited, without tags or fusion partners. Residues count along the entry.", "UniProt P23219, 24-599": "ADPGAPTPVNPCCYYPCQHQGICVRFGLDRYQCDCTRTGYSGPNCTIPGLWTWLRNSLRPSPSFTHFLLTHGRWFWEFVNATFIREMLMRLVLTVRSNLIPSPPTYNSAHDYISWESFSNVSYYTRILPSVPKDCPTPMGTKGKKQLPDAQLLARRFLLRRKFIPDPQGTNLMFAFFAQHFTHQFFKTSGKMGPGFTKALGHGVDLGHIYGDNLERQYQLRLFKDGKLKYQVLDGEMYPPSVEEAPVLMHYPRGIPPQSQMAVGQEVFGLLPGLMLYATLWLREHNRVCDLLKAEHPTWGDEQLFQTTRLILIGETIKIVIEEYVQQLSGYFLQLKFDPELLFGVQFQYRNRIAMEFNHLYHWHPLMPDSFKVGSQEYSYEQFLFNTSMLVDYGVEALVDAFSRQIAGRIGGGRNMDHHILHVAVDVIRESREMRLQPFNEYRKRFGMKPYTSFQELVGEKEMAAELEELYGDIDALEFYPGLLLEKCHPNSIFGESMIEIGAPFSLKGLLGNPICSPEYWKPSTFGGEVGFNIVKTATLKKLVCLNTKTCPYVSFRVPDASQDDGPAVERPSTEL"}, "source": "paper PMC11220827", "about": "(Frontiers in Pharmacology, 2024)", "molecular_target": "COX1 (h) (Homo sapiens, UniProt P23219)", "experiment": "Pharmacology profiling: COX1 (h)", "assay_type": "biochemical", "conditions": "read-out: COX1 (h): % inhibition @10 µM", "data": [{"smiles": "O=c1c(-c2ccc(O)cc2)coc2cc(O)cc(O)c12", "note": "[Genistein, 5,7-DIHYDROXY-3-(4-HYDROXYPHENYL)-4-BENZOPYRONE]", "values": [{"measurement": "inhibition at 10 µM", "value": 70.8, "unit": "%"}]}]}
